Results reported in US12344618B2, “Heterotricyclic derivative compound and use of same” (HANMI PHARMACEUTICAL CO., LTD., priority 2019, dated 2025).

Chains of the proteins cited; added tags and fusions are not shown.
UniProt Q92800, whole entry: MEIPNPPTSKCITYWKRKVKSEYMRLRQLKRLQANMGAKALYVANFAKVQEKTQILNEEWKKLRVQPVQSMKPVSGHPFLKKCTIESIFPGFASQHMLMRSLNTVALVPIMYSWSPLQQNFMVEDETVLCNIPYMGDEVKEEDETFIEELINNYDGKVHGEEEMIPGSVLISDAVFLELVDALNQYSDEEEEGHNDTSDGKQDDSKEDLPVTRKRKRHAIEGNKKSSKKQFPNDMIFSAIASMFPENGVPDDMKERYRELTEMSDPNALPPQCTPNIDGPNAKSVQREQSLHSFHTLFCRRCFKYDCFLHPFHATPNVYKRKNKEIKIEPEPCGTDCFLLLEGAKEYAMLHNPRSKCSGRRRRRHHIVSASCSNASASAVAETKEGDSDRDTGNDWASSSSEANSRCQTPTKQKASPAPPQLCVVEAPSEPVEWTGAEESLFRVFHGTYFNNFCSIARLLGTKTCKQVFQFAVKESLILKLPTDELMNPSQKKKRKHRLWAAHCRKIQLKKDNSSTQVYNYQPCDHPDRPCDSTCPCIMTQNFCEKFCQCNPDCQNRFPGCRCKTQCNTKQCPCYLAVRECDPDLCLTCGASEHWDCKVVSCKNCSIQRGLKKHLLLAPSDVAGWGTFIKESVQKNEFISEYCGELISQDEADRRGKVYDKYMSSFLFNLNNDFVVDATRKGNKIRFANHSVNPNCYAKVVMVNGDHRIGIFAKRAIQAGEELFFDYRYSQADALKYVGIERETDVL

Molecular target: T1, EZH1 (Homo sapiens, UniProt Q92800)
T1 construct: purchased Reaction Biology Corp. (contract assay)
Test: Inhibitory activity against EZH1 methyltransferase (radiometric scintillation proximity assay);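 further: Read-out is methylation of a substrate peptide, captured on streptavidin-coated SPA beads and counted by scintillation, in Tris-HCl buffer at pH 8.0 with 1% DMSO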
Assay type: biochemical
Conditions: 2.3 nmol/L enzyme, 90 minutes, room temperature

SMILES: Cc1cc(C)c(CN2CCc3c(Br)c4c(c(C)c3C2=O)OC(C)([C@H]2CC[C@H](N(C)C)CC2)O4)c(=O)[nH]1 (single isomer, unassigned) [Compound 49, 9-bromo-6-((4,6-dimethyl-2-oxo-1,2-dihydropyridin-3-yl)methyl)-2-(trans-4-(dimethylamino)cyclohexyl)-2,4-dimethyl-7,8-dihydro-[1,3]dioxolo[4,5-g]isoquinolin-5(6H)-one]
- IC50: 7 to 16 nM

SMILES: Cc1cc(C)c(CN2CCc3c(Br)c4c(c(C)c3C2=O)OC(C)([C@H]2CC[C@H](N(C)C)CC2)O4)c(=O)[nH]1 (single isomer, unassigned) [Compound 50, 9-bromo-6-((4,6-dimethyl-2-oxo-1,2-dihydropyridin-3-yl)methyl)-2-(trans-4-(dimethylamino)cyclohexyl)-2,4-dimethyl-7,8-dihydro-[1,3]dioxolo[4,5-g]isoquinolin-5(6H)-one]
- IC50: > 1000 nM

SMILES: Cc1cc(C)c(CN2CCc3c(Br)c4c(c(C)c3C2=O)OC(C)([C@H]2CC[C@H](N(C)C)CC2)O4)c(=O)[nH]1 (stereo partly drawn) [Compound 48, 9-bromo-6-((4,6-dimethyl-2-oxo-1,2-dihydropyridin-3-yl)methyl)-2-(trans-4-(dimethylamino)cyclohexyl)-2,4-dimethyl-7,8-dihydro-[1,3]dioxolo[4,5-g]isoquinolin-5(6H)-one]
- IC50: 2.6 to 40 nM
